# Values of other authors in paper PMC2692298.
# Sequences of proteins named here, by UniProt entry; tags and fusion partners are left off. Residues count along the entry.
# UniProt P48061, 22-89: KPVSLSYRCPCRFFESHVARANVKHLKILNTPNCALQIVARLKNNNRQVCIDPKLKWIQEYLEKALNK
# Target: SDF-1/CXCL12 (Homo sapiens) (UniProt P48061)
# Experiment: diffusion coefficient
# Conditions: cited from earlier work
substance,measurement,value
SDF-1/CXCL12 (from UniProt P48061),Kd,120 µM
